Target: T1, farnesyl diphosphate/geranylgeranyl diphosphate synthase (rPfFPPS) (Plasmodium falciparum, UniProt Q8II79)
T1 construct: gene PF3D7_1128400
T1 sequence (Q8II79 1-376): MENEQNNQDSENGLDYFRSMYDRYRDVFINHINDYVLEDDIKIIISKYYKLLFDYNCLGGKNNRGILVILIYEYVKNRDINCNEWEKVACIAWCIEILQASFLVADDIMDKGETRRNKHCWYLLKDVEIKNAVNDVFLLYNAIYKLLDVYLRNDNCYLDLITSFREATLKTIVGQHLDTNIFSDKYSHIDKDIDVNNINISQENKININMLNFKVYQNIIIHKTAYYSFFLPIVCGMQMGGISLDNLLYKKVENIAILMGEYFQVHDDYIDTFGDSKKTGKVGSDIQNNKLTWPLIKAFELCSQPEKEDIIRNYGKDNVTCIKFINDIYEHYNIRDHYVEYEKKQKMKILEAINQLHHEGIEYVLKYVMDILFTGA
Test: biochemical

With `O=P(O)(O)C(O)(Cc1cccnc1)P(=O)(O)O` [risedronate] as the compound, how does the IC50 read?
Its IC50 is 1300 ± 200 nM.

— PMC3679732, “Cloning and characterization of bifunctional enzyme farnesyl diphosphate/geranylgeranyl diphosphate synthase from Plasmodium falciparum” (Malaria Journal, 2013)
